## AlphaSeq binding of Ab-14 light chain variants to a spike HR2 peptide

Target peptide (SARS-CoV-2 spike, HR2 region): PDVDLGDISGINAS

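These sequences belong to a second round, designed from the earlier measurements on random variants of the parent. Their group label is 14L_En_HC (En: ensemble of fine-tuned language models; HC: hill climbing; a sequence that several methods proposed may carry one label only). In AlphaSeq, yeast of one mating type display the scFv and yeast of the other type display the target. Mating (16 h, 30 °C) was followed by selection of diploids and sequencing of their barcodes. Each replicate has its own calibration line, from reference interactions of the BCL2 family. Each pool was mated in six replicate cultures.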

Parent: Ab-14, a human scFv built as VH, the linker GGGGSGGGGSGGGGS, VL. Only the CDRs of the light chain vary.
VH: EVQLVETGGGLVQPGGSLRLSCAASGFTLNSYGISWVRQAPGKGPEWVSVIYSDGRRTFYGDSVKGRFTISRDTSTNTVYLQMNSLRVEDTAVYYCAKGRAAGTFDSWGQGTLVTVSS
VL: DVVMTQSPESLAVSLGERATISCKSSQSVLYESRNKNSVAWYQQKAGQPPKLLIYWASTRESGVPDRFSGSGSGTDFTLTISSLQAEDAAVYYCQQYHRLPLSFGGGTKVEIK

The parent's light chain CDRs are KSSQSVLYESRNKNSVA, WASTRES, QQYHRLPLS; each variant's own CDRs replace them letter for letter. Scale: log10 of Kd in nM, estimated from mating counts; low values are strong binders. Where no diploid with the target was found in that replicate, the entry reads "nd": below detection, most likely a poor binder, though not proof of it. The range of this assay differs from that of the first round, and the authors advise against merging the two.

{"CDR-L1": "ALSQSMDMTSRAKNSVA", "CDR-L2": "DLTTREN", "CDR-L3": "QQYHRLPLS", "replicates, log10 nM": "0.31 0.14 -0.04 -0.01 0.32 0.33", "signal with controls": "0/18"}
{"CDR-L1": "KLGQSVAMTSRNKNNVA", "CDR-L2": "DLNERER", "CDR-L3": "QQYHRLPLS", "replicates, log10 nM": "0.45 0.37 0.23 0.03 0.36 0.42", "signal with controls": "0/18"}
{"CDR-L1": "KLSQVTHSEHKMKNSIA", "CDR-L2": "EMVTREK", "CDR-L3": "QQYDRLPLS", "replicates, log10 nM": "0.77 0.68 0.47 0.46 0.66 0.92", "signal with controls": "1/18 (3.39)"}
{"CDR-L1": "KISGYLNKESKNKNNVA", "CDR-L2": "EMVNRES", "CDR-L3": "QQYDRLPLS", "replicates, log10 nM": "0.56 0.69 0.66 0.60 0.52 0.79", "signal with controls": "2/18 (2.79)"}
{"CDR-L1": "KISQLVNFEGKNTNSVA", "CDR-L2": "QMSTRES", "CDR-L3": "QQYDRLPLS", "replicates, log10 nM": "0.75 0.75 0.71 0.86 0.66 0.73", "signal with controls": "2/18 (3.09)"}
{"CDR-L1": "KLSATYRYESQNKNSIA", "CDR-L2": "EMSTREE", "CDR-L3": "QCYHRLPLS", "replicates, log10 nM": "1.74 0.92 0.95 1.59 1.42 1.86", "signal with controls": "0/18"}
{"CDR-L1": "KLYQATAMTSTMRNNVA", "CDR-L2": "DLNERER", "CDR-L3": "QQYFRLPLS", "replicates, log10 nM": "-0.08 -0.15 -0.20 -0.31 -0.01 0.04", "signal with controls": "3/18 (2.40)"}
{"CDR-L1": "TLSMLMDMTSRNVNSVA", "CDR-L2": "DLTTRGN", "CDR-L3": "QQYHRLPLS", "replicates, log10 nM": "nd nd 1.58 nd nd nd", "signal with controls": "0/18"}
{"CDR-L1": "MISGLVMSESRLKNSVA", "CDR-L2": "QTTTRES", "CDR-L3": "QQYDRLPLS", "replicates, log10 nM": "0.51 0.45 0.50 0.36 0.43 0.58", "signal with controls": "0/18"}
{"CDR-L1": "KLPQATMQESVSKNSVA", "CDR-L2": "ELSTRGA", "CDR-L3": "QQYHRLPLS", "replicates, log10 nM": "0.23 -0.02 0.23 0.18 0.21 0.23", "signal with controls": "1/18 (3.44)"}
{"CDR-L1": "MFSQGVMVGWLTRNSVA", "CDR-L2": "NSETRES", "CDR-L3": "QQYDRLPLI", "replicates, log10 nM": "1.15 nd 1.27 2.09 2.30 1.83", "signal with controls": "0/18"}
{"CDR-L1": "HMSQVTMYGMWMRNSVA", "CDR-L2": "QTSTRES", "CDR-L3": "QQYDRLPLS", "replicates, log10 nM": "0.72 1.56 0.78 0.97 1.45 0.57", "signal with controls": "0/18"}
{"CDR-L1": "KISQMFNVGTKNKNSLA", "CDR-L2": "EMSTREF", "CDR-L3": "QDYHRLPLS", "replicates, log10 nM": "1.57 1.17 2.95 1.52 1.39 1.29", "signal with controls": "1/18 (1.44)"}
{"CDR-L1": "ILSQSVLMGSHLKNSVA", "CDR-L2": "QASTRFS", "CDR-L3": "QQYHRLPLV", "replicates, log10 nM": "nd nd nd nd nd nd", "signal with controls": "0/18"}
{"CDR-L1": "KLRQVTGYESYNKNSVA", "CDR-L2": "QTSTRVN", "CDR-L3": "QDYHRLPLS", "replicates, log10 nM": "0.92 1.22 1.27 1.27 1.32 1.55", "signal with controls": "1/18 (2.41)"}
{"CDR-L1": "IISGSMLMESRNKNSVA", "CDR-L2": "NAEEREY", "CDR-L3": "QHYDRLPLS", "replicates, log10 nM": "1.91 1.71 1.77 1.56 1.61 1.99", "signal with controls": "1/18 (5.07)"}
{"CDR-L1": "KIGQMSTIESIMHNSVA", "CDR-L2": "QTSTREN", "CDR-L3": "QQYDRLPLS", "replicates, log10 nM": "1.41 1.66 1.01 0.77 1.46 1.21", "signal with controls": "2/18 (2.74)"}
{"CDR-L1": "QLSGPMLSESKNKNSVA", "CDR-L2": "EFSTRGS", "CDR-L3": "QQYHRLPLS", "replicates, log10 nM": "1.51 1.94 1.14 2.26 1.78 1.66", "signal with controls": "2/18 (2.27)"}
{"CDR-L1": "MISPSVMYGYRNLNSVA", "CDR-L2": "QTQTREN", "CDR-L3": "QQYNRLPLS", "replicates, log10 nM": "-0.21 -0.12 -0.28 -0.27 -0.21 0.37", "signal with controls": "0/18"}
{"CDR-L1": "SLMQVGGYESNNKNSIA", "CDR-L2": "DLRTRLS", "CDR-L3": "QQYHRLPLS", "replicates, log10 nM": "0.78 0.86 0.60 0.44 0.70 1.06", "signal with controls": "1/18 (1.90)"}
{"CDR-L1": "QLLMATMQGTYNRNSVA", "CDR-L2": "QAETRED", "CDR-L3": "QSYHRLPLS", "replicates, log10 nM": "-0.17 0.17 -0.06 -0.01 -0.12 0.15", "signal with controls": "3/18 (3.25)"}
{"CDR-L1": "KFGQMVLTGAYVSNSVA", "CDR-L2": "QMSTRAN", "CDR-L3": "QQYHRLPLS", "replicates, log10 nM": "0.46 0.72 0.46 0.11 0.90 0.73", "signal with controls": "0/18"}
{"CDR-L1": "KIYQATAMTSSVRNNVA", "CDR-L2": "DLNERER", "CDR-L3": "QQYFRLPLS", "replicates, log10 nM": "0.32 0.16 -0.08 -0.15 -0.03 -0.04", "signal with controls": "2/18 (2.40)"}
{"CDR-L1": "HISQMVMYGSCNKNNVA", "CDR-L2": "QVSIREE", "CDR-L3": "QQYHRLPLS", "replicates, log10 nM": "nd nd nd nd nd nd", "signal with controls": "0/18"}
{"CDR-L1": "TIGQVMNWESRNTNSVA", "CDR-L2": "QTSTREE", "CDR-L3": "QDYDRLPLS", "replicates, log10 nM": "1.74 nd nd nd nd nd", "signal with controls": "0/18"}

Again, the first 2 entries without any signal:

CDR-L1,CDR-L2,CDR-L3,"replicates, log10 nM",signal with controls
ILSQSVLMGSHLKNSVA,QASTRFS,QQYHRLPLV,nd nd nd nd nd nd,0/18
HISQMVMYGSCNKNNVA,QVSIREE,QQYHRLPLS,nd nd nd nd nd nd,0/18

The authors averaged sequences with at least three values out of six and counted those with two or fewer as poor binders. Empty control strains, which show no peptide, gave a signal in 4% of pairings with all light chain designs; the median was 2.64 and 95% of these signals were weaker than 1.59. No background was subtracted. For each scFv, signals with the empty controls are counted beside the result, with their mean in brackets. Of ten entries with the parent sequence, four were seen in most replicates (averages 0.34 to 2.37), three in one and three in none, so single entries are noisy.

From the AlphaSeq antibody data of Li et al. 2023 (doi:10.1038/s41467-023-39022-2), copy in the FLAb collection.